# Test results as given in paper PMC9334269 (2022).
# B1: STING1-Flag (Flag-tagged full-length STING) [not stated] / HA-tagged 1-245 NCOA4 fragment [human] (parent complex)
# chain 1: MPHSSLHPSIPCPRGHGAQKAALVLLSACLVTLWGLGEPPEHTLRYLVLHLASLQLGLLLNGVCSLAEELRHIHSRYRGSYWRTVRACLGCPLRRGALLLLSIYFYYSLPNAVGPPFTWMLALLGLSQALNILLGLKGLAPAEISAVCEKGNFNVAHGLAWSYYIGYLRLILPELQARIRTYNQHYNNLLRGAVSQRLYILLPLDCGVPDNLSMADPNIRFLDKLPQQTGDHAGIKDRVYSNSIYELLENGQRAGTCVLEYATPLQTLFAMSQYSQAGFSREDRLEQAKLFCRTLEDILADAPESQNNCRLIAYQEPADDSSFSLSQEVLRHLRQEEKEEVTVGSLKTSAVPSTSTMSQEPELLISGMEKPLPLRTDFS
# chain 2: MNTFQDQSGSSSNREPLLRCSDARRDLELAIGGVLRAEQQIKDNLREVKAQIHSCISRHLECLRSREVWLYEQVDLIYQLKEETLQQQAQQLYSLLGQFNCLTHQLECTQNKDLANQVSVCLERLGSLTLKPEDSTVLLFEADTITLRQTITTFGSLKTIQIPEHLMAHASSANIGPFLEKRGCISMPEQKSASGIVAVPFSEWLLGSKPASGYQAPYIPSTDPQDWLTQKQTLENSQTSSRACN
# Variants of: B1
# Experiment: co-immunoprecipitation (Flag IP, immunoblot densitometry); HEK293T cell lysates
row,ratio to parent,Variant
1,2.11,chain 1 Q273A
2,1.4,chain 1 S322A
3,1.18,"chain 1 Q273A, chain 1 E316A"
4,0.79,"chain 1 Q273A, chain 1 S322A"
5,0.36,"chain 1 Q273A, chain 1 E316A, chain 1 S322A"
6,1.25,chain 1 E316A
7,0.68,"chain 1 E316A, chain 1 S322A"
